Laboratory results: PMC10671074, “Tumor Regression upon Intratumoral and Subcutaneous Dosing of the STING Agonist ALG-031048 in Mouse Efficacy Models” (International Journal of Molecular Sciences, 2023)

Sequences of proteins named here, by UniProt entry; tags and fusion partners are left off.
UniProt Q86WV6, whole entry H232R: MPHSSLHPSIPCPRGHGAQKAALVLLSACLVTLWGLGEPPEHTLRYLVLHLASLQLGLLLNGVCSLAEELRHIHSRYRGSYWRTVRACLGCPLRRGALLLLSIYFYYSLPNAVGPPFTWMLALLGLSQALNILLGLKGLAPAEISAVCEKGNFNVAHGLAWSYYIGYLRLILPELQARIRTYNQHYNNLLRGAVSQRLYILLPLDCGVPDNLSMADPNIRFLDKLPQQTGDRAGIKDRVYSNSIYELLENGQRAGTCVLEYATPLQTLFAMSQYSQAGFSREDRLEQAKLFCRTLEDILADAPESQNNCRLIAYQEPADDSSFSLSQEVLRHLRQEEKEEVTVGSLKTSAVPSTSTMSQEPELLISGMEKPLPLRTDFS

How the values were obtained:
[1] = test system: HEK 293 cells lacking functional STING; experiment: HEK 293 STING Dual Null IRF reporter assay; details: read-out: Reporter Cell Assay EC50, STING Dual Null IRF; HEK 293 STING null cell line; mean±standard deviation
[2] = molecular target: STING R232 (Homo sapiens, UniProt Q86WV6, H232R); experiment: HEK 293 STING R232 IRF reporter assay; format: cell-based; design: host or cells: 293T-Dual hSTING-R232 (HEK 293T derived); details: HEK 293 STING R232 cells, digitonin dosing buffer 30 min, 20 h; mean±standard deviation; read-out: Reporter Cell Assay EC50, STING R232 IRF

- EC50 [2]: 0.84 ± 0.86 µM
Substance: IFN-β: interferon β used as STING-independent control in the reporter cells
- EC50 [1]: 8.55 ± 9.95 µM
